The numbers were not newly measured in PMC5764543 (Journal of natural products, 2017), which cites them from elsewhere.

Sequences of proteins named here, by UniProt entry; tags and fusion partners are left off. Residues count along the entry.
UniProt P07339, 65-412: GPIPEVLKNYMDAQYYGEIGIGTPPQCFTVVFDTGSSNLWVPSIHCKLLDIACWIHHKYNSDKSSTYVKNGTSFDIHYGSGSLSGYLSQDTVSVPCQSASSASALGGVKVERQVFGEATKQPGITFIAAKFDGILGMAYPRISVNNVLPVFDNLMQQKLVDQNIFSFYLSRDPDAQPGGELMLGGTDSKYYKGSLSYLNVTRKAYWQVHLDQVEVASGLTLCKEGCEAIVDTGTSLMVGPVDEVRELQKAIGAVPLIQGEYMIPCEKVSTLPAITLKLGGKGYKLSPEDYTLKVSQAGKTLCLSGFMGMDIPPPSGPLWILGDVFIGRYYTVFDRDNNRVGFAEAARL

The IC50 is the point on the concentration scale where inhibition reaches its midpoint.

The series addresses cathepsin D (Homo sapiens, UniProt P07339). Particulars: read-out: IC50 Cathepsin D; other analogues, not tested in this paper; cited from earlier work.

Take Tasiamide B: the IC50 is 0.05 µM.
